Experiment [1] is described as follows: Displacement of [3H] N-methylscopolamine from muscarinic acetylcholine receptor in guinea pig brain homogenate after 30 mins by scintillation counting analysis. On the technique in general: Loss of bound radioactivity is the signal in a displacement assay; it reports binding, not function.
Experiment [2] in a line: Inhibition of muscarinic acetylcholine receptor in rat cortex.
Experiment [3] concerns the target Muscarinic acetylcholine receptor M2 (Homo sapiens, UniProt P08172). The conditions noted are these: cho-k1.
For experiment [4], the target named is Muscarinic acetylcholine receptor M3 (Homo sapiens, UniProt P20309). The conditions noted are these: cho-k1.
Experiment [5] concerns the target Muscarinic acetylcholine receptor M4 (Homo sapiens, UniProt P08173). The conditions noted are these: cho-k1.
Experiment [6] addresses T1, Muscarinic acetylcholine receptor M1 (Homo sapiens, UniProt P11229). The conditions noted are these: cho-k1.
In experiment [7] the target is T1, Muscarinic acetylcholine receptor M1. The experiment in a line: Displacement of [3H] N-methylscopolamine from human muscarinic M1 receptor after 30 mins by scintillation counting analysis.
Experiment [8] in a line: Displacement of [3H] N-methylscopolamine from muscarinic M3 receptor in guinea pig brain homogenate after 30 mins by scintillation counting analysis.
Experiment [9] is described as follows: Displacement of [3H] N-methylscopolamine from muscarinic M4 receptor in guinea pig brain homogenate after 30 mins by scintillation counting analysis.
Experiment [10] is described as follows: Displacement of [3H] N-methylscopolamine from muscarinic M2 receptor in guinea pig brain homogenate after 30 mins by scintillation counting analysis.

Amino acid sequences for entries named in this document (tags omitted). A change or cut given only in a name is not applied to a line headed by its entry.
UniProt P08172, whole entry, looked up: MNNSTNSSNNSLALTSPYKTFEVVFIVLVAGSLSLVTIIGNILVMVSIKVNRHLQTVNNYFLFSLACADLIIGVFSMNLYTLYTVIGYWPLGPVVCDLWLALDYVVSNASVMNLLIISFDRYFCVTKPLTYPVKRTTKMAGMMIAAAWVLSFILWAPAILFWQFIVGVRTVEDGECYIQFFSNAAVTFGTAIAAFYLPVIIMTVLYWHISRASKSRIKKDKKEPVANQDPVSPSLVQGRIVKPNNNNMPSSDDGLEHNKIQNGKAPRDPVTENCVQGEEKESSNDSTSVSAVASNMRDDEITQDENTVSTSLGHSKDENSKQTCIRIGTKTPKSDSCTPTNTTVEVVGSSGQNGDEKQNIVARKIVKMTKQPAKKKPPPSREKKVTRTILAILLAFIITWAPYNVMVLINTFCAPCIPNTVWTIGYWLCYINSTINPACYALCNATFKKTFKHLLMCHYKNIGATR
UniProt P20309, whole entry, looked up: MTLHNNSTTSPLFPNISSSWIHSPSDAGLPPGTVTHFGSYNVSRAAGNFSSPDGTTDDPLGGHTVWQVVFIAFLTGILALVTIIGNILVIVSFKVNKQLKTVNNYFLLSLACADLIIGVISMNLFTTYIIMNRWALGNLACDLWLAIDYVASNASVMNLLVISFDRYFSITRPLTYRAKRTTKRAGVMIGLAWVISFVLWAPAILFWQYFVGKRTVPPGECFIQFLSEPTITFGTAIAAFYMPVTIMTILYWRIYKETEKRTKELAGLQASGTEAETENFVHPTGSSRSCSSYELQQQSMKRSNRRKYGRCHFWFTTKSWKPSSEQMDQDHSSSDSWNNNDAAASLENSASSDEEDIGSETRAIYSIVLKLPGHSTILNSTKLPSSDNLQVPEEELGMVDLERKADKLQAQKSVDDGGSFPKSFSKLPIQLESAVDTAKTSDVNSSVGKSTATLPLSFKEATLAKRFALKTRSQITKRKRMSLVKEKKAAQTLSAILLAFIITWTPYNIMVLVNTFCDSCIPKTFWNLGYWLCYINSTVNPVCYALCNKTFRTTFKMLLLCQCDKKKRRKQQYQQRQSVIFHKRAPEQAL
UniProt P08173, whole entry, looked up: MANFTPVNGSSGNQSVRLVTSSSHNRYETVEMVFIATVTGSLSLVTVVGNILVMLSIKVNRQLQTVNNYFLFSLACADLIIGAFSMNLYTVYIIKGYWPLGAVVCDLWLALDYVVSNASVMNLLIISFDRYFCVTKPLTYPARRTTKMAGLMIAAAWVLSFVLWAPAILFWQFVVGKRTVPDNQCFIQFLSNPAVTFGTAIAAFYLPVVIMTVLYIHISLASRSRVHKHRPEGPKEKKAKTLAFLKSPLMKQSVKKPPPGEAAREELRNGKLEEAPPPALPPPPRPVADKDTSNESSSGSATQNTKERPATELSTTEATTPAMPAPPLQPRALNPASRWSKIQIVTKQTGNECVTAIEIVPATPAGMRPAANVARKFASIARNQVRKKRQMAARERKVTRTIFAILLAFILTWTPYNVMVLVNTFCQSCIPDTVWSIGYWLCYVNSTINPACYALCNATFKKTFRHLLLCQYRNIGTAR
UniProt P11229: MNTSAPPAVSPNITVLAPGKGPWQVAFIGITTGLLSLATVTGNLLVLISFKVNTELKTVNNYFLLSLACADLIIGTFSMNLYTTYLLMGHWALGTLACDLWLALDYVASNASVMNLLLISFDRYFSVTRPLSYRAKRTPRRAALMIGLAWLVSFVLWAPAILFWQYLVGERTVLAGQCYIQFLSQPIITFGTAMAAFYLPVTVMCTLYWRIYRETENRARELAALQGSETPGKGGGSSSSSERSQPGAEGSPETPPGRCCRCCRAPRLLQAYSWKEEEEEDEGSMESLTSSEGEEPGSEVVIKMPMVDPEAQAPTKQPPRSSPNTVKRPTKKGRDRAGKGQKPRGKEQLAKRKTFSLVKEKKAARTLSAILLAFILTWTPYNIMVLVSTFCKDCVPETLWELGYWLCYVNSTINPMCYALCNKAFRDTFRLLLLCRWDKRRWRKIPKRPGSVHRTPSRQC

Molecules are shown by their SMILES.

Usually Ki stands for a dissociation constant, usually derived from enzyme kinetics or from competition with a known ligand. For `CCN(CC)CCOC(C)(c1ccccc1)c1ccc(Cl)cc1` (configuration not stated), the Ki in experiment [1] was 1220 nM.
The compound `CCN(CC)CCOC(=O)C1(c2ccc(I)cc2)CCCC1` had an inhibition constant Ki in experiment [2] of 8.6 nM.
Take `CC[C@H](C)C(C(=O)OCCCN(CC)CC)c1ccccc1` (some centres not stated): the inhibition constant (Ki) in experiment [3] came out at 116 nM; in [1], 21.3 nM; in [4], 5.97 nM; in experiment [5], 89.6 nM; in [6], 10.7 nM.
In [1], `COc1ccc(Cl)cc1NS(=O)(=O)c1c(C)cc(C)cc1C` came in with a Ki of 33100 nM.
For `CCN(CC)CCOC(=O)C(c1ccccc1)C1(O)CCCCC1` (configuration not stated), the Ki in experiment [3] was determined as 15.1 nM; in [1] it was 5.79 nM; in experiment [4], 8.37 nM; in [5], 9.48 nM; in experiment [6], 7.75 nM.
Take `CCN(CC)CCOC(=O)C1(C2CCCCC2)CCCCC1`: the Ki in [2] was 4.6 nM.
Turning to `CCN(CC)CC#CCOC(=O)C(O)(c1ccccc1)C1CCCCC1` (configuration not stated), the affinity in experiment [2], expressed as Ki, was 2 nM.
In [2], `OC(CCN1CCCCC1)(c1ccccc1)C1CCCCC1` (configuration not stated) yielded a Ki of 1.5 nM.
As for `OC(CCN1CCCCC1)(c1ccccc1)C1CC2C=CC1C2` (configuration not stated), the Ki in experiment [1] turned out to be 10.5 nM; in [5] it was 32.1 nM.
`C[n+]1cscc1C(C)(C)OC(=O)c1ccccc1` displayed a Ki in experiment [1] of 833 nM.
The compound `CN1CCC(OC(=O)Cc2cccc(C(F)(F)F)c2)CC1` registered an inhibitory constant (Ki) in experiment [1] of 1350 nM.
The same measure, in the same setting: to `C[N+](C)(C)CC#CC(O)(c1ccccc1)C1CCCC1` (configuration not stated) belongs 1200 nM.
Take `CCN(CC)CCOC(=O)c1ccccc1Sc1ccc(Cl)cc1`: the inhibitory constant (Ki) is 1340 nM in experiment [3], 109 nM in [4], 2670 nM in experiment [7] and 519 nM in experiment [6].
In experiment [1], `COc1cc(Br)cc(C2Nc3c(c(C)nn3C)C(=O)CS2)c1` (configuration not stated) yielded a Ki of 18900 nM.
In the case of `CC[N+](C)(CC)CCOC(=O)C(c1ccccc1)c1ccccc1`, the Ki was determined as 270 nM in experiment [4], 164 nM in experiment [7], 1690 nM in [5] and 5.78 nM in experiment [6].
In experiment [2], `CCN(CC)CCOC(=O)C1(c2ccc([N+](=O)[O-])cc2)CCCC1` showed a Ki of 57 nM.
On to `CN1CCC(OC(=O)C(CO)c2cccc(C(F)(F)F)c2)CC1` (configuration not stated), for which the Ki in experiment [3] was found to be 30.8 nM; in [4], 11.2 nM; in [8], 14.2 nM; in experiment [5] it was 285 nM; in experiment [9], 14.2 nM.
Turning to `CCN(CC)CCOC(=O)C(CC)(c1ccccc1)c1ccccc1`, the Ki in experiment [3] came to 243 nM; in [4], 243 nM; in experiment [9] it was 27.3 nM; in [6], 166 nM.
In the case of `CC[N+](C)(CC)CCOC(=O)C(O)(c1ccccc1)c1ccccc1`, the Ki in experiment [3] is 1.54 nM; in [1], 0.129 nM; in experiment [4], 4.25 nM; in experiment [5] it was 13.2 nM; in [6] it was 1.59 nM.
Take `CN(C)CCSC(c1ccccc1)c1ccccc1`: the affinity in [1] corresponds to a Ki of 775 nM.
On the same count and under the same terms, next, `CC(C)(C)N1CC(C(=O)c2ccccc2)C(=O)C1=O` (configuration not stated): 4100 nM.
Turning to `CC[N+](CC)(CC)CCOC(=O)C(c1ccccc1)c1ccccc1`, the Ki in experiment [3] was found to be 738 nM; in experiment [4] it was 0.543 nM; in experiment [7] it was 65.5 nM; in [6], 5.75 nM.
With `CCN(CC)CCOC(=O)C1(c2ccccc2)CCCC1`, the inhibitory constant (Ki) in [2] came to 7.2 nM.
Turning to `CCN(CC)CCOC(=O)C(C)(c1ccccc1)c1ccc(O)cc1` (configuration not stated), the Ki in [3] was found to be 0.165 nM; in experiment [10], 44 nM; in experiment [4] it was 52.2 nM; in [7], 44 nM; in experiment [5] it was 566 nM; in experiment [6] it was 0.881 nM.
In the case of `C[N+](C)(C)CCOC(=O)C(c1ccccc1)c1ccccc1`, the Ki in experiment [3] was determined as 348 nM; in experiment [10] it was 254 nM; in experiment [4] it was 384 nM; in experiment [7], 254 nM; in experiment [5], 676 nM; in experiment [6], 85.7 nM.
In the case of `CCN(CC)CCSC(C(=O)OCC=C(C)C)c1ccccc1` (configuration not stated), the inhibition constant (Ki) in experiment [1] was 4130 nM; in experiment [6], 1040 nM.
On to `CCN(CC)CCOC(=O)C(c1ccccc1)N1CCCCC1` (configuration not stated), for which the Ki in experiment [3] was found to be 1020 nM; in experiment [10] it was 517 nM; in [4], 186 nM; in experiment [7], 517 nM; in experiment [8], 517 nM; in [6] it was 271 nM.

The record behind these values is ChEMBL document CHEMBL2375349, “Discovery of subtype selective muscarinic receptor antagonists as alternatives to atropine using in silico pharmacophore modeling and virtual screening methods” (2013).
